The target of assay [1] is Neuraminidase (Influenza A virus (A/Puerto Rico/8/1934(H1N1)), UniProt P03468).
Assay [2] shares this target. This is another data set of the same source.
For assay [3] the target is unchanged. This is another data set of the same source.
Assay [4] shares this target. This is another data set of the same source.
For assay [5] the target is unchanged. This is another data set of the same source.
Assay [6] has the same target. In words: Inhibition of sialidase (Flu A, 5 nM).
Assay [7] has the same target. This is another data set of the same source.
Assay [8] has the same target. In words: Inhibition of influenza A virus sialidase activity.

By UniProt entry, the sequences of proteins in these tests, tags left out.
UniProt P03468, whole entry: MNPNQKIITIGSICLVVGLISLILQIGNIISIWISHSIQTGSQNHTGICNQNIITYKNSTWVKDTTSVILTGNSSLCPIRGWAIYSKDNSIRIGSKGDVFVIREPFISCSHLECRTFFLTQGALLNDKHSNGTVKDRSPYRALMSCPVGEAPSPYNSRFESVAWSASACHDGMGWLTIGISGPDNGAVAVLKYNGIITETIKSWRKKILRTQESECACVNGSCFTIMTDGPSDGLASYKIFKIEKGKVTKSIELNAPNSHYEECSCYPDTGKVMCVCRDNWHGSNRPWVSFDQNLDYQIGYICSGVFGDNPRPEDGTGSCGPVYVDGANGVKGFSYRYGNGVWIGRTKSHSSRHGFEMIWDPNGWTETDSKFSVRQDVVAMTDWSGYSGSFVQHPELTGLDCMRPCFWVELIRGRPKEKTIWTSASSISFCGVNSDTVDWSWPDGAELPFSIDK

SMILES strings stand for the structures.

For `CC(=O)N[C@@H]1[C@@H](N)C=C(C(=O)O)O[C@H]1C(=O)N1C(C)CCC1C` (some centres not stated), the IC50 in assay [1] is 5 nM; in assay [2] it was 110 nM; in assay [3], 35 nM; in assay [4] it was 120 nM; in assay [5], 6 nM; in assay [6], 6 nM. In assay [7], this compound registered a 50% inhibitory concentration (IC50) of 1600 nM.
For `CC(=O)N[C@H]1[C@@H](C(=O)N2C(C)CCC2C)OC(C(=O)O)=C[C@@H]1N` (some centres not stated), 110 nM corresponded to half-maximal inhibition in assay [8] (IC50).
As for `CCCCN(CCCC)C(=O)[C@@H]1OC(C(=O)O)=C[C@H](N)[C@H]1NC(C)=O`, the IC50 was found to be 100 nM in assay [3], 5900 nM in assay [4], 450 nM in assay [5] and 11000 nM in assay [7].

Usually IC50 stands for the concentration at which inhibition is half-maximal.

The record behind these values is ChEMBL document CHEMBL1131488, “Dihydropyrancarboxamides related to zanamivir: a new series of inhibitors of influenza virus sialidases. 1. Discovery, synthesis, biological activity, and structure-activity relationships of 4-guanidino- and 4-amino-4H-pyran-6-carboxamides” (J Med Chem, 1998).
